Measured values from patent US11963980B2, “Activated CD26-high immune cells and CD26-negative immune cells and uses thereof” (MUSC FOUNDATION FOR RESEARCH DEVELOPMENT, priority 2016, dated 2024).

Test system: CD4^+CD26^high cells
Settings: 2.5 nM Alogliptin, N=4

In the case of Cn1c(=O)cc(N2CCC[C@@H](N)C2)n(Cc2ccccc2C#N)c1=O [Alogliptin], the “MIP-1β (chemokine) secretion of CD4+CD26high cells” value was “less”.
